Results on one compound are retold here after US9249163B2, “PDE10a inhibitors for the treatment of type II diabetes” (Janssen Pharmaceutica, NV, priority 2013, dated 2016).

Protein sequences, listed by entry. Tags and fused reporters are not part of them. Residues count along the entry.
UniProt Q9Y233, 267-1055: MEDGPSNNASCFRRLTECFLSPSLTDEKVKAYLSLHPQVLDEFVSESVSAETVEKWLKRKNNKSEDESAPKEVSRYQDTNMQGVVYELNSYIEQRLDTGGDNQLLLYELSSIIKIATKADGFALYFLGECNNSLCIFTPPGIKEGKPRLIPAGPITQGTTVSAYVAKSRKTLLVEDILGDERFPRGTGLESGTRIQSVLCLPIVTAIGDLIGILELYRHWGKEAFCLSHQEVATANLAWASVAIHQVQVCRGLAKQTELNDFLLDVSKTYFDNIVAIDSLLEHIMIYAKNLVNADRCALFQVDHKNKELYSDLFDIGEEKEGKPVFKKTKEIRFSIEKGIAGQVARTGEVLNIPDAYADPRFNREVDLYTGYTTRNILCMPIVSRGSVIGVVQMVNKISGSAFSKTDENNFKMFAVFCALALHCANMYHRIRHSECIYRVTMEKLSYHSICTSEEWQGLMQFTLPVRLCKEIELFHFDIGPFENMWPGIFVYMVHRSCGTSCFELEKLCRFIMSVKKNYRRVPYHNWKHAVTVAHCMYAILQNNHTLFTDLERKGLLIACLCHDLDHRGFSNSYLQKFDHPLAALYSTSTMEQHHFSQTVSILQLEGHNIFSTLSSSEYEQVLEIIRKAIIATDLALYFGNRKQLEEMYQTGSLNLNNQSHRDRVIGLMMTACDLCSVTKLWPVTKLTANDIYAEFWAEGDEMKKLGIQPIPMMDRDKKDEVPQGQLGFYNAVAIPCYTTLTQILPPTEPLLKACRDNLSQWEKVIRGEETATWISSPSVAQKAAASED

Each structure is given as a SMILES string. Where a name gives a salt, the structure may show the parent alone.

The IC50 is the point on the concentration scale where inhibition reaches its midpoint. For orientation: Kp means the ratio of the level in a tissue or fluid to that in plasma or blood.

Data set [1] concerns the target Human recombinant PDE10A2 (Homo sapiens (Human), UniProt Q9Y233). Put plainly: In vitro hPDE10a (human recombinant PDE10A2, scintillation proximity assay). It counts as biochemical. The note with it: human recombinant PDE10A2, 60 nM cAMP, 60 min at room temperature; read-out: hPDE10a2 IC50. How it is done: Human recombinant PDE10A2 was expressed in Sf9 cells, using a recombinant baculovirus construct containing the full length sequence containing a 6×His sequence following the start Met to allow metal affinity purification of the recombinant protein. Cells were harvested and the phosphodiesterase protein was purified by metal chelate chromatography on Ni-sepharose 6FF.
The affinity of the compounds of Formula (I) for phophodiesterases (PDE) was measured by a scintillation proximity assay (SPA). PDE Yttrium Silicate SPA beads allow PDE activity to be measured by direct binding of the primary phosphate groups of non-cyclic AMP or GMP to the beads via a complex iron chelation mechanism. The amount of bound tritiated product ([^3H]-AMP) is measured by liquid scintillation counting.
The compounds were dissolved and diluted in 100% DMSO in polystyrene plates to a concentration of 100-fold the final concentration in the assay. […] After sedimentation of the beads for 30 min, the radioactivity was measured in a Perkin Elmer Topcount scintillation counter and results were expressed as cpm. […]
Data were calculated as the percentage of inhibition of total activity measured in the absence of test compound (% control).
(Scintillation proximity formats need no separation of bound from free tracer.)

Data set [2] in a line: PDE10a-perfused brain permeability study (plasma and brain concentrations). Particulars: male, Sprague-Dawley, rat.

For the compound `Nc1ccc(-c2cnc(N3CCOCC3)c3nc(COc4ccc5ccccc5n4)cn23)cn1` [Cpd 122, 5-(8-Morpholino-2-((quinolin-2-yloxy)methyl)imidazo[1,2-a]pyrazin-5-yl)pyridin-2-amine methane sulfonic acid salt], the IC50 in data set [1] worked out at 9 nM. For the same compound, the Kp at 2 h in data set [2] turned out to be 3.18.
